What was measured:
[1] = target: ECD of murine IGSF11, recombinant biotinylated (mouse) (UniProt P0C673); assay: ELISA RFU 0.5-1.0
[2] = target: extracellular domain (ECD) of human IGSF11 (VSIG3), recombinant (human) (UniProt Q5DX21); assay: ELISA RFU 0.5-1.0

By UniProt entry, the sequences of proteins in these tests, tags left out. Residues count along the entry.
UniProt P0C673, 23-240 limits assumed: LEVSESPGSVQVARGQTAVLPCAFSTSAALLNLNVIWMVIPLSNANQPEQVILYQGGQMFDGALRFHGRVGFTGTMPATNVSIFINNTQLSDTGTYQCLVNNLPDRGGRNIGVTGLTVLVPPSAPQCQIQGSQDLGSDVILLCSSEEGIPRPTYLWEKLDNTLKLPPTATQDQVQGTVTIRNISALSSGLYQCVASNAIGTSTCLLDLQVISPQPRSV
UniProt Q5DX21, 23-241: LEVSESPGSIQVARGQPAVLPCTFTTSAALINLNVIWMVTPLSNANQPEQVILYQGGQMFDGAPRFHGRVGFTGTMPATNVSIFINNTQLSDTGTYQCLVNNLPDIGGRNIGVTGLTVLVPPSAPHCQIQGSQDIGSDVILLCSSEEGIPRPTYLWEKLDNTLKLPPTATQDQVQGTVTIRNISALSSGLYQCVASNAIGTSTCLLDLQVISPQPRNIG

ELISA binding signal (RFU) [1]: 0.5 to 1 rfu
ELISA binding signal (RFU) [2]: 0.5 to 1 rfu
Substance: A-018 (scFv format)
